This is a sample that favours compounds with a hit; in the whole collection about 2.8% have one here.
UUG fidelity: yeast start codon fidelity modulation; activity score, % at 18.7 µM; actives 0.13% (n = 350,000); S. cerevisiae UUG-firefly luciferase reporter, luminescence/redox ratio; AID 602363;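 active means replicate mean at a twofold rise or more, about +100% in these data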;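 further: firefly luciferase made from a UUG start codon reports start codon fidelity; reporter light over untreated wells divided by growth signal over untreated wells; some hits fall short of that in this replicate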
PglD inh: C. jejuni PglD acetyltransferase inhibitors, primary screen, biochemical, DTNB colorimetric, single point. UDP-N-acetylbacillosamine N-acetyltransferase PglD (Campylobacter jejuni). purified PglD enzyme, DTNB colorimetric CoA detection. inhibition, % at 12.5 µM. 0.098% of 360,000 active; in the data active = inhibition above about 16%, passing the limit was not always enough
E-sel inducer: E-selectin induction in HUVECs, primary screen, imaging, HUVEC, immunofluorescence imaging, single point; 0.37% of 260,000 active; P16581; activation, % at 7.58 µM; normalized: neutral wells 0, TNF-alpha wells 100; AID 686992, 2013;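 active = mean E-selectin-positive cell signal at least 10% of the positive control, reached in at least 60% of replicates, without over 20% cell loss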
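material = human umbilical vein endothelial cells (HUVEC), E-selectin induction | quantity = 3,000 cells/well | medium = EGM-2 growth medium on 0.1% gelatin-coated wells | technique = immunofluorescence imaging | read-out basis = % PE-positive cells | control set = TNF-alpha positive control, DMSO neutral control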
PGC1a acetyl inh: inhibitors of PGC1a acetylation signal, primary screen, cell-based, U2OS, AlphaScreen, inhibitor mode; AlphaScreen anti-acetyl-lysine; with virally co-expressed GCN5 acetyltransferase; inhibition, % at 15.6 µM; 0.17% of 350,000 active;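 active = every replicate shows inhibition of at least 40%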;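 note: 0% = neutral control wells and 100% = positive control wells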
C2C12 statin: suppressors of statin myotoxicity in C2C12 myotubes, primary screen, cell-based, single point, plate reader | C2C12 myotubes + simvastatin, ATP luminescence, 48 h; scaled: DMSO 0, geranylgeraniol control 100 | rescue of ATP level, % at 7.49 µM | 0.78% of 330,000 active | AID 602340, 2012;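 active = mean ATP rescue above about 67%, or every replicate alone reaching that limit, limit read from the data, passing the limit was not always enough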;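 note: myotubes were challenged with 10 µM simvastatin during compound exposure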
esBAF inh: Bmi1 luciferase reporter increase in mESCs, primary screen, esBAF inhibitor project, mouse ES cells, Bmi1 luciferase knock-in, single point; 2% of 350,000 active; AID 602393, 2012; reporter increase, % at 12.5 µM; 24 h; 100% = twice the neutral-well signal; in the data active = activation above about 40%;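 note: 0% = median of the plate's neutral control wells and 100% = double that signal; a rise in the Bmi1 reporter signal indicates esBAF inhibition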
Starred values were filed as active, the others as inactive; nt = not tested or not shown.

Every second line gives: PglD inh, PGC1a acetyl inh, E-sel inducer, UUG fidelity, esBAF inh, C2C12 statin
1. CCCNc1ccc(C(=O)OCC)cc1[N+](=O)[O-]
 : -6.1, -11.3, 3.8, -5.5, 51.9*, -0.5
2. Cn1c(-c2ccc3ccccc3n2)nc2cnccc21
 : 2.6, -9.3, nt, 24.5, 65.6*, -4.5
3. O=C(NNC(=O)c1ccccc1O)c1cccc(Br)c1
 : -6.0, -1.5, 0.1, 5.1, 45.7*, -1.0
4. c1ccc(Nc2nc3ccccc3n3nnnc23)cc1
 : -0.6, nt, -0.5, 6.6, 74.6*, -13.5
5. Fc1cccc(Nc2nc3ccccc3n3nnnc23)c1
 : -7.3, -7.5, 0.0, -16.6, 8.3, -11.3
6. COc1ccc(CNC(=O)C[C@@H]2C=C[C@H](NS(=O)(=O)c3cccc(OC)c3)[C@H](CO)O2)cc1
 : 7.6, -4.4, -0.5, 0.2, 1.4, 8.1
7. Cc1csc2nc(CCNS(=O)(=O)c3cccs3)cn12
 : -1.6, 4.6, 0.2, -17.1, 53.0*, 3.3
8. COc1ccc(CCNS(=O)(=O)c2cccs2)cc1
 : -2.4, -11.4, nt, -14.8, 16.4, 127.8*
9. Cc1nc(CCNS(=O)(=O)c2cccs2)cs1
 : -1.1, nt, nt, -3.0, -5.1, -7.9
10. O=S(=O)(NCCc1ccccc1)c1cccs1
 : -0.8, -1.0, -0.3, -10.5, -1.3, -52.7

The closing three records of the section above come first, to join the parts.
Every second line gives: PglD inh, PGC1a acetyl inh, E-sel inducer, UUG fidelity, esBAF inh, C2C12 statin
8. COc1ccc(CCNS(=O)(=O)c2cccs2)cc1
 : -2.4, -11.4, nt, -14.8, 16.4, 127.8*
9. Cc1nc(CCNS(=O)(=O)c2cccs2)cs1
 : -1.1, nt, nt, -3.0, -5.1, -7.9
10. O=S(=O)(NCCc1ccccc1)c1cccs1
 : -0.8, -1.0, -0.3, -10.5, -1.3, -52.7
11. Cc1ccc(NC(=S)NC(=O)C2CCCC2)c(Br)c1
 : -1.1, -4.6, -0.8, -50.1, 67.5*, -61.7
12. Cc1cc(NC(=S)NC(=O)C2CC2)ccc1Br
 : -1.6, -8.9, nt, -20.9, 63.9*, -35.5
13. Cc1cccc(NC(=S)NC(=O)C2CC2)c1
 : 1.2, nt, nt, -16.9, 22.4, -22.1
14. O=C(Nc1cccc(C(F)(F)F)c1)C1CCN(S(=O)(=O)c2cnc[nH]2)CC1
 : 2.2, 6.0, nt, -9.4, -6.7, 106.9*
15. COc1ccc(C#Cc2ccc3c(c2)[C@@H]2[C@@H](CCN2C(=O)c2ccccc2F)[C@H](CO)N3)cc1
 : 2.5, 5.5, 1.1, -1.9, -1.2, 12.2
16. O=C(NC(=S)Nc1ncccn1)c1ccc(F)cc1
 : 2.7, 1.2, nt, -8.3, 62.3*, 11.2
17. O=C(NC(=S)Nc1cccnc1Cl)c1ccc(F)cc1
 : 4.7, 10.3, 0.5, -19.2, 37.5, 2.7
18. O=C(NC(=S)NC12CC3CC(CC(C3)C1)C2)c1ccc(F)cc1
 : -2.2, -10.2, 1.2, -16.2, 58.0*, -4.6
19. O=C(C[C@H]1C=C[C@H](NC(=O)c2cccc(F)c2)[C@H](CO)O1)Nc1nccs1
 : -10.7, -5.4, -0.2, nt, 0.2, 3.6
20. CC(=O)c1ccc(NC(=O)CCc2c(C)nc3ncnn3c2C)cc1
 : 3.0, 10.2, nt, -5.7, 47.6*, -4.0
21. CCc1c(C)nc2ncnn2c1Nc1ccc(C(C)=O)cc1
 : -0.7, -11.0, -0.2, -26.2, 47.7*, -8.4
22. CS(=O)(=O)c1ncc(Cl)c(C(=O)Nc2ccc(OC(F)F)cc2)n1
 : 0.2, nt, nt, -7.9, -35.0, 117.0*
23. COc1ccc(S(=O)(=O)N(C)C[C@@H]2Oc3ccc(NC(=O)Nc4ccccc4)cc3CC(=O)N([C@H](C)CO)C[C@H]2C)cc1
 : -0.8, -12.3, 0.1, 9.6, 3.2, 26.1
24. Cc1ccc(CNc2ccc([N+](=O)[O-])cc2C(N)=O)cc1
 : -0.3, nt, -0.1, -11.7, 53.9*, -3.8
25. COc1ccc(CN(C)C[C@H]2Oc3c(NC(=O)NC(C)C)cccc3C(=O)N([C@@H](C)CO)C[C@@H]2C)cc1
 : 14.4, -6.6, 5.9, -1.0, 3.1, -12.0
26. COc1ccc(CN(C)C[C@@H]2Oc3c(NC(=O)Nc4ccc(F)cc4)cccc3C(=O)N([C@@H](C)CO)C[C@H]2C)cc1
 : 6.1, -2.3, 261.0*, -11.4, -1.7, -29.5
27. C[C@H](CO)N1C[C@H](C)[C@H](CN(C)Cc2ccncc2)Oc2c(NC(=O)Nc3ccc(F)cc3)cccc2C1=O
 : -12.0, -2.1, 105.3*, -11.0, -2.2, -3.5
28. C[C@H]1CN([C@@H](C)CO)C(=O)c2cccc(NC(=O)Nc3ccc(F)cc3)c2O[C@@H]1CN(C)Cc1ccncc1
 : 8.2, -4.2, -9.8, 1.7, -9.0, 0.4

Compound activity deposited in PubChem by Broad Institute.
